Data published in paper PMC5586252, “PP2A-B′ holoenzyme substrate recognition, regulation and role in cytokinesis” (Cell Discovery, 2017).

Molecular target: GST-tagged KIAA1524 (CIP2A) peptide (B′-binding motif) (human)
Test: BLI; GST-tagged peptides (300 nM) on anti-GST sensors; B′α, B′γ1 or PP2A-B′γ1 holoenzyme 0–30 μM in the mobile phase; 25 mM Tris pH 8.0, 100 mM NaCl, 3 mM DTT; 1:1 model

- Kd: 0.3 µM
Substance: B′γ1 regulatory subunit (from UniProt Q13362-2 1-449) (natural protein)
